Molecular target: hERG potassium channels stably expressed in CHO-K1 cells (Homo sapiens, UniProt Q12809)
Settings: pH 7.4

The chains behind the UniProt entries cited, without tags or fusion partners. Where a name states a change or a piece, a line headed by the entry shows the natural chain unless it says otherwise.
UniProt Q12809: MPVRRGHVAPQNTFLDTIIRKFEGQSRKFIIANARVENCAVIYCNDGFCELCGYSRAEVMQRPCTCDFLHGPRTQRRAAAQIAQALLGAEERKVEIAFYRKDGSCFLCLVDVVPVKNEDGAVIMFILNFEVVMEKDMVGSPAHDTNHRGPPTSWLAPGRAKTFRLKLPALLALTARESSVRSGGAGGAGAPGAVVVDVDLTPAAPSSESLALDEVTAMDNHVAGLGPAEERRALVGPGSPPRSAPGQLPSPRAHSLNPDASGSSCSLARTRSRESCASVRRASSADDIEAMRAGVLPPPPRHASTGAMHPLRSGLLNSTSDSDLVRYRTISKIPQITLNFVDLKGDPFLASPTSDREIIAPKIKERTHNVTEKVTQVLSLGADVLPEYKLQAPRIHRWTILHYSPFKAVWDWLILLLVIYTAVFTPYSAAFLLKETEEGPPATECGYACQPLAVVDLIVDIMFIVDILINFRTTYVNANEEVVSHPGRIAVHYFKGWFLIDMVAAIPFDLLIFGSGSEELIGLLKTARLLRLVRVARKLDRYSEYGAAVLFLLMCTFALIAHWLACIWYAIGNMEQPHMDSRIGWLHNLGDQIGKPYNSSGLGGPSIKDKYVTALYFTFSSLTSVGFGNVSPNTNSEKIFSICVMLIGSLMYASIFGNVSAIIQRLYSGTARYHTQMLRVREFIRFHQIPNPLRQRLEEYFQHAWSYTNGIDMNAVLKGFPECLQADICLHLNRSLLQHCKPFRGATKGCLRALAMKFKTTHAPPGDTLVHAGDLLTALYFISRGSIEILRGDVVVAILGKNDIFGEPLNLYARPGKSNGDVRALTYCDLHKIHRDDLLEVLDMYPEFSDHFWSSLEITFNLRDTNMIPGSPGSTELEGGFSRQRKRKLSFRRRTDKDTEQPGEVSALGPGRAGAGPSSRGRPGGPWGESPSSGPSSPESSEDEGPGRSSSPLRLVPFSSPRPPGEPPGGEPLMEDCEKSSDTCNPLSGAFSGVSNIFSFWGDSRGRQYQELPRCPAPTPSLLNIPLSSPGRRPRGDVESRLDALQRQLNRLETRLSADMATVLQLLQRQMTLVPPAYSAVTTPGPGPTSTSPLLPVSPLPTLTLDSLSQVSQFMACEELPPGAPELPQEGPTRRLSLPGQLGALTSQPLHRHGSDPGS

## COc1cc(N)c(Cl)cc1C(=O)NC1CCN(CCCOc2ccc(F)cc2)CC1OC (stereo not shown) [Cisapride]
  Free safety margin (hERG IC50/ free Cmax): 28
